# Assays:
# KDM4EJmjC (M1–Q337) = biological target: T1, KDM4EJmjC (M1–Q337) (Homo sapiens, UniProt B2RXH2); experiment: LC-MS demethylation assay, KDM4EJmjC; type: biochemical; conditions: LC-MS time-course, KDM4EJmjC 0.5 µM, peptide 5.0 µM, 22 °C
# T1 construct: We chose human KDM4EJmjC (M1–Q337); made in house
# T1 sequence (B2RXH2 1-337): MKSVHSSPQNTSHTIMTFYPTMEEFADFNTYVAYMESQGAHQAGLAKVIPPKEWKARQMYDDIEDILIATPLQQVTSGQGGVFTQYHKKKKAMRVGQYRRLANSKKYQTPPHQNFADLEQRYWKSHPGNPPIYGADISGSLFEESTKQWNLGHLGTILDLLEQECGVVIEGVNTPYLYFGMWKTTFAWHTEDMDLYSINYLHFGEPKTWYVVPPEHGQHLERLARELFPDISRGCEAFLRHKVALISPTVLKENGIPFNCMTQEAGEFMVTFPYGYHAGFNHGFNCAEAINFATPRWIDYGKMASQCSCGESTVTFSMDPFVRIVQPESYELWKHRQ
# Protocol: KDM4EJmjC demethylation studies of H3_1-15K9me3 or H3_1-15KP9me3 incubations using LC-MS were conducted as reported, using Agilent RapidFire 365 and Agilent QTOF 6530 machines. In brief, samples were aspirated under vacuum (~50 µL), passed through a loop (10 µL, 400 ms) and wash on a SPE cartridge A (C4) using solvent A (1.5 mL·min^−1, 4500 ms). Peptides were eluted using solvent B (1.25 mL·min^−1, 4500 ms) and directed to the MS for measurements. The cartridge was equilibrated for the next sample (1.25 mL·min^−1, 500 ms) and needle was cleaned with an organic wash solution. Between each sample, an alternating inorganic, organic and inorganic washes were performed to avoid any potential carry over on the SPE cartridge from previous sample. Solvent A: formic acid (0.1%) in water; Solvent B: formic acid (0.1%), acetonitrile (85%) in water; Inorganic wash: water; Organic wash: acetonitrile. Demethylation reactions were conducted in a temperature-controlled room (22 °C) and the MS machine Real-time monitoring mode. A solution [Peptide (6.0 µM), sodium L-ascorbate (600 µM), (NH4)2Fe(II)(SO4)2 (60 µM), disodium 2OG salt (120 µM) in buffer] […] (100 µL) was added and samples from the solution were taken every 2–2.5 min and measured. Note that the time was recorded between the addition and the first aspiration of the enzymatic reaction mixture [Peptide and Enzyme solution mixture]. […]
# KDM7BJmjC (M37–N483) = experiment: MALDI-TOF demethylation assay, KDM7BJmjC; type: biochemical; conditions: 1 hr
# Text: To investigate whether H3KP9me3 can be demethylated by other human KDM4 subfamily members, recombinant KDM4AJmjC (M1–L359) and KDM4DJmjC (M1–L358) were produced in E. coli following an adaption of literature procedures[38],[39]. […] No evidence for further demethylation was accrued. […] To test the ability of KDM3 and KDM7 subfamily representatives to demethylate H3KP9me2 or H3KP9me3, KDM3AJmjC (T515–S1317) and KDM7BJmjC (M37–N483) were produced using baculovirus/sf9 and E. coli expression systems, respectively[40],[41]. The synthesis of a histone H3 mimic peptide H3KP9me2 substrate is challenging as the tri-alkylated phosphine group is susceptible to oxidation during synthesis of the protected amino acid and during SPPS requiring oxygen-free conditions. Thus, to investigate if KDM3AJmjC or KDM7BJmjC can catalyse demethylation of H3KP9me2, an appropriate H3KP9me2 substrate was prepared in situ from H3KP9me3 using KDM4EJmjC (2.0 µM), in the presence of KDM3AJmjC (2.0 µM) or KDM7BJmjC (2.0 µM).
# A Bruker Daltonics MALDI-TOF/TOF AutoflexSpeed machine and Bruker MTP 384 target plates (polished steel BC, Part: 8280781) were used. The machine was controlled using Flex control (v. 3.4 build 135.10) and Compass for flex series (v. 1.4) software. Measurements were in the positive ion mode with the reflectron mode enabled. […] Samples were then analysed by MALDI-TOF. […]
substance,measurement,setting,value
"ARTKQTAR(Kme3)STGGKA [H3K9me3, natural trimethyllysine control peptide, histone H3 residues 1–15, reference compound]",demethylation,KDM4EJmjC (M1–Q337),both are substrates
same,demethylation in combination with KDM4EJmjC,"KDM7BJmjC (M37–N483); KDM7BJmjC 2.0 µM plus KDM4EJmjC 2.0 µM, peptide 5.0 µM",manifests conversion to H3K9me1
same,demethylation,"KDM7BJmjC (M37–N483); KDM7BJmjC 2.0 µM, H3KP9me2 prepared in situ with KDM4EJmjC",do not catalyse demethylation of H3K9me3

# Source: publication PMC7613515, “Reading and erasing of the phosphonium analogue of trimethyllysine by epigenetic proteins” (Communications Chemistry, 2022)
